According to ChEMBL document CHEMBL4130504, “Discovery of new indomethacin-based analogs with potentially selective cyclooxygenase-2 inhibition and observed diminishing to PGE2 activities” (Eur J Med Chem, 2017):

System: Rattus norvegicus
Assay: Ulcerogenicity in albino rat assessed as at 30 umol/kg, po administered daily for 3 successive days in two equal doses at 0 and 12 hrs measured at 6 hrs post last dose by magnifying lens based assay relative to control
Format: toxicity, organism-based
Conditions: in vivo

For `COc1ccc2c(c1)c(CC(=O)O)c(C)n2C(=O)c1ccc(Cl)cc1` [INDOMETHACIN], which Activity is on record?
The Activity was 100%.
